The results in this text go back to patent US20220251214A1.

In experiment [1] the target is recombinant human EGFR on the surface of NS0/EGFR cells (EGFR-FLAG-GPI) (human) (UniProt P00533). Kind of experiment: cell-based or functional assay.
Experiment [2] deals with human GITR on the cell surface (JD/GITR cells; GITR-expressing T cells) (human) (UniProt Q9Y5U5). Nature of the experiment: cell-based or functional assay.

Turning to BS827 (bispecific antibody), the average relative luciferase unit (RLU) in JD/GITR cells, 1 µg/ml antibody, with NS0/EGFR cells in experiment [1] came out at 47500 RLU. In experiment [2], the average relative luciferase unit (RLU) in JD/GITR cells, 1 µg/ml antibody, with NS0/EGFR cells was 47500 RLU and the average relative luciferase unit (RLU) in JD/GITR cells, 1 µg/ml antibody, with NS0 cells is 17500 RLU.
